Where “and” joins values, the source holds several entries; their conditions need not be identical. Equal entries are not always repeated.
Legend:
Swiss albino mice [1] = assay: Hot plate test with opioid receptor involvement; details: mouse, in vivo
Swiss albino mice [2] = assay: Formalin test with opioid receptor involvement; details: for formalin induced pain, licking time, individual values: single animals; for Total time spent in licking 15–30 min: second phase

Structure (SMILES): CN1CC[C@]23c4c5ccc(O)c4O[C@H]2[C@@H](O)C=C[C@H]3[C@H]1C5 [Mor, morphine, reference compound]
- Reaction time on hot plate, individual values (Swiss albino mice [1]): 10.21 and 9.8 and 8.98 and 8.52 and 5.49 and 11.15 and 10.46 and 9.71 and 9.7 and 7.34 and 12.12 and 11.13 and 10.51 and 10.98 and 9.24
- formalin induced pain, licking time, individual values (Swiss albino mice [2]; 0-5 minutes): 9.8 and 7.02 and 8.68
- formalin induced pain, licking time, individual values (Swiss albino mice [2]; 15-30 minutes): 6.8 and 5.78 and 7.92
- Total time spent in licking 0–5 min (Swiss albino mice [2]; first phase, compounds 50 mg/kg, Mor 5 mg/kg, Nal 1 mg/kg): 8.5 s
- Total time spent in licking 15–30 min (Swiss albino mice [2]; compounds 50 mg/kg, Mor 5 mg/kg, Nal 1 mg/kg): 06.83 ± 0.60 s
- Total time spent in licking 15–30 min (Swiss albino mice [2]; compounds 50 mg/kg, Mor 5 mg/kg, Nal 1 mg/kg, listed as morphine): 6.833 s
